Literature values as cited in patent publication US20260382649A1, “TREATMENT OF ASCT2-DEPENDENT CANCERS” (published 2026).

System: human tumor cells

Row | SMILES | effect on the growth of human tumor cells
1 | CO[C@H]1C[C@H](O[C@H]2CC[C@@]3(C)[C@H](CC[C@@H]4[C@@H]3CC[C@]3(C)[C@@H](C5=CC(=O)OC5)[C@@H](OC(C)=O)C[C@]43O)C2)O[C@@H](C)[C@@H]1O | inhibitory effect
2 | C[C@H]1O[C@@H](O[C@H]2[C@@H](O)C[C@H](O[C@H]3[C@@H](O)C[C@H](O[C@H]4CC[C@@]5(C)[C@H](CC[C@@H]6[C@@H]5CC[C@]5(C)[C@@H](C7=CC(=O)OC7)CC[C@]65O)C4)O[C@@H]3C)O[C@@H]2C)C[C@H](O)[C@@H]1O | inhibitory effect
